The values that follow are results of earlier work, collected in patent US20190091218A1 (priority 2016, published 2019).

Structures are written as SMILES. Entries after “also recorded” stand apart in the source; their conditions may differ.

The conditions of series [1]: in vivo.
For series [2] the following is noted: in vivo, po.

For the compound `O=C(O)COCCN1CCN([C@H](c2ccccc2)c2ccc(Cl)cc2)CC1` [levocetirizine], the “time to reach steady state level” value in series [1] is reported as “less than two days; also recorded: within two days”.

In the case of `CC(C)(O)c1ccccc1CC[C@@H](SCC1(CC(=O)O)CC1)c1cccc(/C=C/c2ccc3ccc(Cl)cc3n2)c1` [montelukast], in series [2], the drug interactions entry is on record as “no drug interactions” and the linearity of pharmacokinetics entry is on record as “nearly linear”.
